Source: US20260325535A1 (AXSOME THERAPEUTICS, INC., priority 2025, published 2026)

Test: pKa
Type: physicochemical

Cc1cnc(NC(=O)C2=C(O)c3ccccc3S(=O)(=O)N2C)s1 [Meloxicam, 4-hydroxy-2-methyl-N-(5 methyl-2-thiazolyl)-2H-1,2-benzothiazine-3-carboxamide-1,1-dioxide]
pKa: 4.2
